Earlier results as cited in US9486475B2, “PPS for the prevention of potential adverse effects caused by CD3 specific binding domains” (AMGEN RESEARCH (MUNICH) GMBH, priority 2013, dated 2016).

Conditions: pH 6; cited from earlier work

**Q.** For “β-D-Xylan, (1-4), 2,3-bis(hydrogen sulphate) [PPS]”, which soluble in water is on record?
**A.** Its soluble in water is 50%.
